In the data set the test system is mice. The note with it: mouse, in vivo.

Take `CS(=O)(=O)O.Cc1ccc(C(=O)Nc2ccc(CN3CCN(C)CC3)c(C(F)(F)F)c2)cc1C#Cc1nnc2ccccn12` [methanesulfonic acid salt, 3-(1,2,4-triazolo[4,3-a]pyridine-3-ylethynyl)-4-methyl-N-(4-((4-methylpiperazin-1-yl)methyl)-3-trifluoromethylphenyl)benzamide mono methanesulfonic acid salt]: the delayed-type hypersensitivity test result is “no effect in the delayed-type hypersensitivity test”.
